How the values were obtained:
[1] = target: human IgE (immobilized on the SPR chip) (human) (UniProt P01854); assay: SPR, IgG injected over amine-coupled IgE (t=0)
[2] = target: human IgE (immobilized on the SPR chip) (human) (UniProt P01854); assay: SPR, Biacore T200, single-cycle kinetic titration, IgE immobilized (390 RU), 1:1 model
[3] = target: human IgE (immobilized on the SPR chip) (human) (UniProt P01854); assay: SPR, IgG injected over amine-coupled IgE (t=6 months)

Amino acid sequences for entries named in this document (tags omitted). Chains listed by the source or under a name are the forms on record and can include a tag or linker.
UniProt P01854, other isoform, or with tags, fused parts or gaps: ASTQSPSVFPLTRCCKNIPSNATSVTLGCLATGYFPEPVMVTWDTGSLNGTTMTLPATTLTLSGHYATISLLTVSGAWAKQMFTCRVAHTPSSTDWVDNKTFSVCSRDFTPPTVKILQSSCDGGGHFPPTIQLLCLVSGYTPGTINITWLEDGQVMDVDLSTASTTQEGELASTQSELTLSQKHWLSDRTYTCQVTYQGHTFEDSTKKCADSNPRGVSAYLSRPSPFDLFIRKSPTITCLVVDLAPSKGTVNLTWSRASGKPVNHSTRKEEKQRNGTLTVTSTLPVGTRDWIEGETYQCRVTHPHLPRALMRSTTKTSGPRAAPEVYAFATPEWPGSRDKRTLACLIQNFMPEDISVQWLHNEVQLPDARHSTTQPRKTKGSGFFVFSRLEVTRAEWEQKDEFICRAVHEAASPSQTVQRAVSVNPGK

| Kd [1] [nM] | koff [1] [s⁻¹] | kon [1] [M⁻¹ s⁻¹] | Kd [2] [nM] | koff [2] [s⁻¹] | kon [2] [M⁻¹ s⁻¹] | Kd [3] [nM] | koff [3] [s⁻¹] | kon [3] [M⁻¹ s⁻¹] | Substance |
| --- | --- | --- | --- | --- | --- | --- | --- | --- | --- |
| 0.202 | 0.000159 | 790000 |  |  |  |  |  |  | Omalizumab drug substance, Sample 1 of Example 2 (untreated) (antibody) |
|  |  |  | 1.9 | 0.00154 | 800000 |  |  |  | Omalizumab freeze-dried drug product (Halix batch B3010640), Sample 1 of Example 3 (untreated) (antibody) |
|  |  |  |  |  |  | 0.189 | 0.000192 | 1.02e+06 | Omalizumab released in PBS from chitosan particles, Sample 2 of Example 2 (antibody) |
|  |  |  | 1.9 | 0.00134 | 710000 |  |  |  | Omalizumab released in PBS from chitosan particles, Sample 2 of Example 3 (antibody) |
| 0.184 | 0.000149 | 810000 |  |  |  | 0.153 | 0.000117 | 1.12e+06 | XOLAIR (originator omalizumab), reference sample (antibody) |

From patent US20210259973A1
